Data on six molecules can be found in patent US20260042834A1, “ANTI-CORTICOTROPIN-RELEASING HORMONE ANTIBODIES AND POLYCYSTIC OVARY SYNDROME” (HBM ALPHA THERAPEUTICS, INC., priority 2022, published 2026).

In general, IC50 refers to the concentration that gives 50% inhibition. By kon is commonly meant the second-order rate constant of association.

The subject of one assay is human CRHR2. Kind of assay: CRH-induced luciferase reporter blocking assay, CHO-CRE-hCRHR2 cells. Format: cell-based. The settings on record: CHO-CRE-hCRHR2 cells, 0.1 nM CRH. Here is the method: To create CHO-CRE-hCRHR1, -hCRHR2, -mCRHR1, and -mCRHR2 reporter cell lines, pcDNA3.1-hCRHR1, -hCRHR2, -mCRHR1, and -mCRHR2 were introduced into CHO-CRE cells established above by electroporation as described above. Selection antibiotics hygromycin at 500 μg/ml and G418 at 1,000 μg/ml were employed. Individual established stable cell lines were characterized by both CRH and forskolin stimulation.
Activated GPCR proteins increase production of the intracellular cAMP. CHO-CRE-human CRHR1 stable clone 11 was generated by introduction of pcDNA3.1-human CRHR1 under the selection of G418 and hygromycin. Human CRHR1 expression in CHO-CRE-hCRHR1 Clone 11 was confirmed by flow cytometry (data not shown). To further validate that the cell line was functional, CHO-CRE-hCRHR1 Clone 11 cells were treated with forskolin and CRH peptide. […] Subsequently CHO-CRE-hCRHR2 Clone 32, -mCRHR1 Clone 22, and -mCRHR2 Clone 8 cell lines were established using similar methodology and validated with CRH treatment (data not shown).
Blocking CRHR1 by small molecules or neutralization of CRH peptide can reduce luciferase expression if the CRH-CRHR1 system works in CHO-CRE-hCRHR1 cells. Antalarmin, a small molecule CRHR1 antagonist, blocked CRH-mediated luciferase expression in CHO-CRE-hCRHR1 Clone 11 (data not shown). Furthermore, sheep anti-CRH polyclonal antibody reduced CRH-mediated luciferase expression in these cells (data not shown). Likewise, sheep anti-CRH polyclonal antibody blocked CRH-mediated luciferase expression in CHO-CRE-hCRHR2, CHO-CRE-mCRHR1, and CHO-CRE-mCRHR2 cells (data not shown).
(§1) Cells were digested by trypsin-EDTA (Life technologies, Cat #:12604-013), centrifuged at 1,000 rpm for 5 min, resuspended in growth medium, counted using a cell counter, seeded at a concentration of 5,000 cells per 100 μl in 96-well flat plates, and incubated overnight. 50 μl of 4× serially diluted antibodies was added (8 points, 1/4 diluted by growth medium) to plates containing CHO-CRE-hCRHR1 cells, and 50 μl of 4×CRH (4× is 2 nM, final is 0.5 nM) was added. Similarly, 4×CRH (4× is 0.4 nM, final is 0.1 nM) was added to CHO-CRE-hCRHR2 cells and CHO-CRE-mCRHR1 cells, and 4×CRH (4× is 20 nM, final is 5 nM) was added to CHO-CRE-mCRHR2 cells. Next, plates were incubated 4-6 hours at 37° C. in a CO2 incubator. 60 μl of culture medium was removed, to which was added 60 μl of Bio-Glo luciferase, followed by incubation for 10 min at RT. Plates were read in a luciferase plate reader (EnVision, PerkinElmer).

For the next assay, the system named is mouse CRHR2. Kind of assay: CRH-induced luciferase reporter blocking assay, CHO-CRE-mCRHR2 cells. The settings on record: CHO-CRE-mCRHR2 cells, 5 nM CRH. Format: cell-based. Here is the method: To create CHO-CRE-hCRHR1, -hCRHR2, -mCRHR1, and -mCRHR2 reporter cell lines, pcDNA3.1-hCRHR1, -hCRHR2, -mCRHR1, and -mCRHR2 were introduced into CHO-CRE cells established above by electroporation as described above. Selection antibiotics hygromycin at 500 μg/ml and G418 at 1,000 μg/ml were employed. Individual established stable cell lines were characterized by both CRH and forskolin stimulation. […]
as §1
(In general: In a reporter assay the amount or activity of a reporter protein is the signal.)

The target in the next assay is T1, biotinylated CRH (Homo sapiens, UniProt P06850).
T1 construct: purchased GL Biochem 784751
T1 sequence (P06850 154-194): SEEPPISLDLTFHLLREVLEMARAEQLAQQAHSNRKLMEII
Description: Affinity determination with Octet. Format: binding. The protocol:
Octet® Red 96e was used for affinity measurement. Octet® running buffer was prepared by diluting kinetics buffer 10× (Fortebio, Cat #18-1105) in PBS according to the manufacturer's instructions. Two columns of SA sensors (Fortebio, Cat #18-5019) were hydrated in running buffer for 10 mins, one for ligand capturing and the other for reference. Antibodies were 2-fold diluted and added into a 96-well plate. 30 nM biotinylated CRH (GL Biochem, Cat #784751) was captured by the first column of SA sensors for 20 seconds, while reference sensors were dipped into buffer wells. After a 60-second baseline step, sensors were dipped into analyte and buffer wells successively, with the association and dissociation time of 180 seconds and 800 seconds, respectively. Sensors were regenerated in glycine pH1.5 (Cytiva, Cat #BR-1003-54) before the next cycle. […] Signals of reference wells and reference sensors were subtracted by selecting “Double reference” before data fitting.

B1: PR006146: ΔPTM variant of Series 1 mAb PR004290; HCDR2 54DA55, LCDR1 36DS37 (antibody)
heavy: EVQLVESGGVLVQPGGSLRLSCAASGFTFSSYWMTWVRQAPGKGLEWVANIKQDASEKYYVDSVKGRFTISRDNAKNSLFLQMNSLRAEDTAVYYCARTLIFDYWGQGTLVTVSSASTKGPSVFPLAPSSKSTSGGTAALGCLVKDYFPEPVTVSWNSGALTSGVHTFPAVLQSSGLYSLSSVVTVPSSSLGTQTYICNVNHKPSNTKVDKKV[human IgG1 Fc not listed]
light: DIVMTQSPLSLPVTPGEPASISCRSSQSLLHSTGYDSLEWYLQKPGQSPQLLIYLGSNRASGVPDRFSGSGSGTDFTLKISRVEAEDVGIYYCMQTLQTPITFGQGTRLEIKRTVAAPSVFIFPPSDEQLKSGTASVVCLLNNFYPREAKVQWKVDNALQSGNSQESVTEQDSKDSTYSLSSTLTLSKADYEKHKVYACEVTHQGLSSPVTKSFNRGEC
For the molecule B1, the IC50 in the assay with human CRHR2 amounted to 17 nM; in the assay with mouse CRHR2, 10.7 nM. Also, the “kdis” value with biotinylated CRH turned out to be 4.84e-05 s⁻¹. The “kon” value in the assay with biotinylated CRH was determined as 445000 M⁻¹ s⁻¹.

B2: PR006150: ΔPTM variant of Series 1 mAb PR004290; HCDR2 54DS55, LCDR1 36DS37 (antibody)
heavy: EVQLVESGGVLVQPGGSLRLSCAASGFTFSSYWMTWVRQAPGKGLEWVANIKQDSSEKYYVDSVKGRFTISRDNAKNSLFLQMNSLRAEDTAVYYCARTLIFDYWGQGTLVTVSSASTKGPSVFPLAPSSKSTSGGTAALGCLVKDYFPEPVTVSWNSGALTSGVHTFPAVLQSSGLYSLSSVVTVPSSSLGTQTYICNVNHKPSNTKVDKKV[human IgG1 Fc not listed]
light: DIVMTQSPLSLPVTPGEPASISCRSSQSLLHSTGYDSLEWYLQKPGQSPQLLIYLGSNRASGVPDRFSGSGSGTDFTLKISRVEAEDVGIYYCMQTLQTPITFGQGTRLEIKRTVAAPSVFIFPPSDEQLKSGTASVVCLLNNFYPREAKVQWKVDNALQSGNSQESVTEQDSKDSTYSLSSTLTLSKADYEKHKVYACEVTHQGLSSPVTKSFNRGEC
As to B2, in the assay on human CRHR2, the IC50 came to 14.6 nM. In the assay with mouse CRHR2, half-maximal inhibition (IC50) required 4.6 nM. Further, in the assay with biotinylated CRH, the “kdis” value stood at 5.66e-05 s⁻¹ and the “kon” value was 555000 M⁻¹ s⁻¹.

B3: PR006148: ΔPTM variant of Series 1 mAb PR004290; HCDR2 54DA55, LCDR1 36NP37 (antibody)
heavy: EVQLVESGGVLVQPGGSLRLSCAASGFTFSSYWMTWVRQAPGKGLEWVANIKQDASEKYYVDSVKGRFTISRDNAKNSLFLQMNSLRAEDTAVYYCARTLIFDYWGQGTLVTVSSASTKGPSVFPLAPSSKSTSGGTAALGCLVKDYFPEPVTVSWNSGALTSGVHTFPAVLQSSGLYSLSSVVTVPSSSLGTQTYICNVNHKPSNTKVDKKV[human IgG1 Fc not listed]
light: DIVMTQSPLSLPVTPGEPASISCRSSQSLLHSTGYNPLEWYLQKPGQSPQLLIYLGSNRASGVPDRFSGSGSGTDFTLKISRVEAEDVGIYYCMQTLQTPITFGQGTRLEIKRTVAAPSVFIFPPSDEQLKSGTASVVCLLNNFYPREAKVQWKVDNALQSGNSQESVTEQDSKDSTYSLSSTLTLSKADYEKHKVYACEVTHQGLSSPVTKSFNRGEC
As to B3, the IC50 amounted to 6.11 nM in the assay with human CRHR2 and 4.71 nM with mouse CRHR2. For the same molecule, the “kdis” value in the assay with biotinylated CRH was determined as 5.42e-05 s⁻¹.

B4: PR006147: ΔPTM variant of Series 1 mAb PR004290; HCDR2 54DA55, LCDR1 36HS37 (antibody)
heavy: EVQLVESGGVLVQPGGSLRLSCAASGFTFSSYWMTWVRQAPGKGLEWVANIKQDASEKYYVDSVKGRFTISRDNAKNSLFLQMNSLRAEDTAVYYCARTLIFDYWGQGTLVTVSSASTKGPSVFPLAPSSKSTSGGTAALGCLVKDYFPEPVTVSWNSGALTSGVHTFPAVLQSSGLYSLSSVVTVPSSSLGTQTYICNVNHKPSNTKVDKKV[human IgG1 Fc not listed]
light: DIVMTQSPLSLPVTPGEPASISCRSSQSLLHSTGYHSLEWYLQKPGQSPQLLIYLGSNRASGVPDRFSGSGSGTDFTLKISRVEAEDVGIYYCMQTLQTPITFGQGTRLEIKRTVAAPSVFIFPPSDEQLKSGTASVVCLLNNFYPREAKVQWKVDNALQSGNSQESVTEQDSKDSTYSLSSTLTLSKADYEKHKVYACEVTHQGLSSPVTKSFNRGEC
As to B4, the IC50 with human CRHR2 was found to be 37.8 nM. Further, in the assay with mouse CRHR2, the IC50 worked out at 18.2 nM. For the same molecule, in the assay with biotinylated CRH, the “kdis” value was 6.96e-05 s⁻¹ and the “kon” value was 489000 M⁻¹ s⁻¹.

B5: PR006151: ΔPTM variant of Series 1 mAb PR004290; HCDR2 54DS55, LCDR1 36HS37 (antibody)
heavy: EVQLVESGGVLVQPGGSLRLSCAASGFTFSSYWMTWVRQAPGKGLEWVANIKQDSSEKYYVDSVKGRFTISRDNAKNSLFLQMNSLRAEDTAVYYCARTLIFDYWGQGTLVTVSSASTKGPSVFPLAPSSKSTSGGTAALGCLVKDYFPEPVTVSWNSGALTSGVHTFPAVLQSSGLYSLSSVVTVPSSSLGTQTYICNVNHKPSNTKVDKKV[human IgG1 Fc not listed]
light: DIVMTQSPLSLPVTPGEPASISCRSSQSLLHSTGYHSLEWYLQKPGQSPQLLIYLGSNRASGVPDRFSGSGSGTDFTLKISRVEAEDVGIYYCMQTLQTPITFGQGTRLEIKRTVAAPSVFIFPPSDEQLKSGTASVVCLLNNFYPREAKVQWKVDNALQSGNSQESVTEQDSKDSTYSLSSTLTLSKADYEKHKVYACEVTHQGLSSPVTKSFNRGEC
Regarding B5, the midpoint of inhibition with human CRHR2, the IC50, lay at 14.2 nM. In addition, the IC50 with mouse CRHR2 stood at 23 nM. In the assay with biotinylated CRH, the “kdis” value was 8e-05 s⁻¹ and the “kon” value was found to be 500000 M⁻¹ s⁻¹.

B6: PR006149: ΔPTM variant of Series 1 mAb PR004290; HCDR2 54DA55, LCDR1 36SS37 (antibody)
heavy: EVQLVESGGVLVQPGGSLRLSCAASGFTFSSYWMTWVRQAPGKGLEWVANIKQDASEKYYVDSVKGRFTISRDNAKNSLFLQMNSLRAEDTAVYYCARTLIFDYWGQGTLVTVSSASTKGPSVFPLAPSSKSTSGGTAALGCLVKDYFPEPVTVSWNSGALTSGVHTFPAVLQSSGLYSLSSVVTVPSSSLGTQTYICNVNHKPSNTKVDKKV[human IgG1 Fc not listed]
light: DIVMTQSPLSLPVTPGEPASISCRSSQSLLHSTGYSSLEWYLQKPGQSPQLLIYLGSNRASGVPDRFSGSGSGTDFTLKISRVEAEDVGIYYCMQTLQTPITFGQGTRLEIKRTVAAPSVFIFPPSDEQLKSGTASVVCLLNNFYPREAKVQWKVDNALQSGNSQESVTEQDSKDSTYSLSSTLTLSKADYEKHKVYACEVTHQGLSSPVTKSFNRGEC
In the case of B6, the IC50 in the assay on human CRHR2 was 24.9 nM. The molecule further yielded an IC50 in the assay with mouse CRHR2 of 15.5 nM. Also, in the assay with biotinylated CRH, the “kdis” value turned out to be 7.78e-05 s⁻¹ and the on-rate (kon) is 487000 M⁻¹ s⁻¹.
